How the values were obtained:
Conditions in all cases: Canis lupus familiaris
[1] = system: Thromboxane-A synthase (Canis familiaris); assay: Ex vivo […] (TXA2 synthase) inhibitory activity after 5 hr of oral dosing (1 mg/kg) in the dog
[2] = system: Thromboxane-A synthase (Canis familiaris); assay: Ex vivo […] (TXA2 synthase) inhibitory activity after 8 hr of oral dosing (1 mg/kg) in the dog
[3] = system: Thromboxane-A synthase (Canis familiaris); assay: Ex vivo […] (TXA2 synthase) inhibitory activity after 24 hr of oral dosing (1 mg/kg) in the dog

Cc1ccc(OC(C)(C)C2OCC(C/C=C\CCC(=O)O)C(c3cccnc3)O2)c([N+](=O)[O-])c1 (stereo in doubt; 7x)
inhibition [1]: 53.5%
inhibition [2]: 49.1%
inhibition [3]: 41.1%

From ChEMBL document CHEMBL1128245, “Dual-acting thromboxane receptor antagonist/synthase inhibitors: synthesis and biological properties of [2-substituted-4-(3-pyridyl)-1,3-dioxan-5-yl] alkenoic acids” (J Med Chem, 1995)
